SMILES strings stand for the structures. Only a part is listed here, and it is no random draw. Calls of active or inactive are those of the source.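 How the source made its calls: active means inhibition above the mean of all tested compounds plus 3 SD (cut at about 70% in these data); inactive means the rest.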

Chains of the proteins cited; added tags and fusions are not shown.
UniProt Q9Y5X4, whole entry: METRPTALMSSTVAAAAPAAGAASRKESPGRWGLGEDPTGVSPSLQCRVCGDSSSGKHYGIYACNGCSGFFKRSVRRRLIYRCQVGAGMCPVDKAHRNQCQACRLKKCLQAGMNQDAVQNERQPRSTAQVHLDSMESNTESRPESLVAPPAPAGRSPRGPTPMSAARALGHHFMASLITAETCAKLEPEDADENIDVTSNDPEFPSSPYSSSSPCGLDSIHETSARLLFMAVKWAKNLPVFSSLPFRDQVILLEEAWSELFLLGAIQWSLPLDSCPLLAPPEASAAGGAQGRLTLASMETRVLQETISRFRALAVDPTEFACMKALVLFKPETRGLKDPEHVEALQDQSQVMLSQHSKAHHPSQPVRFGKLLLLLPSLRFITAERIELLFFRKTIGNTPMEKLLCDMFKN

The experiment concerns the target Photoreceptor-specific nuclear receptor (Homo sapiens) (UniProt Q9Y5X4). Nature of the experiment: NR2E3 agonists in two-hybrid cells, primary screen, cell-based, luminescence, CHO-S, Gal4-NCOR/VP16-NR2E3 (AID 602229).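 Further: 0% = DMSO with NR2E3 transfected cells and 100% = cells lacking NR2E3 construct; higher means lower luciferase signal from less NR2E3 corepressor binding.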 The settings on record: luciferase, at 3.98 µM, active compounds read high.
For `CCC(=O)N(c1ccccc1)C1(COC)CCN(CCc2cccs2)CC1`, the inhibition of corepressor binding was inactive: -1.99%.
Next, `CCC(=O)N(c1ccccc1)C1(COC)CCN(CCn2nnn(CC)c2=O)CC1`: inactive: -20.4%.
